# US6573284B1, “Method of treating melanoma” (priority 1996, dated 2003)
# Test system: human melanoma (C32, G361 and STMl1la) and nonmelanoma derived cell lines (Caki-2 and CHO)
# Assay: Growth inhibition (cytotoxicity), Sulpforhodamine B (SRB) assay
# Format: cell-based
# Conditions: read-out: IC50 (concentration necessary to inhibit 50% of growth); all cell lines; SRB assay after four hours exposure
structure (smiles),measurement,value
Oc1ccc(N(CCCl)CCCl)cc1,IC50,1 to 2 µM
